Measured values as given in PubChem BioAssay AID588814 (The Scripps Research Institute Molecular Screening Center, 2011).
“And” between values parts separate entries of the source, which are not always exact repeats. Equal values may be shown once. The entries are a selection whose mix differs from that of the whole data set. The source made the active and inactive calls.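 The calls were made as follows: active = activation above the run's mean compound activation plus 3 SD (cut at about 16% in these data); inactive = the rest.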

Protein sequences, listed by entry. Tags and fused reporters are not part of them. Lines headed by an entry give the natural chain unless they say otherwise; changes in a name come on top.
UniProt P11229: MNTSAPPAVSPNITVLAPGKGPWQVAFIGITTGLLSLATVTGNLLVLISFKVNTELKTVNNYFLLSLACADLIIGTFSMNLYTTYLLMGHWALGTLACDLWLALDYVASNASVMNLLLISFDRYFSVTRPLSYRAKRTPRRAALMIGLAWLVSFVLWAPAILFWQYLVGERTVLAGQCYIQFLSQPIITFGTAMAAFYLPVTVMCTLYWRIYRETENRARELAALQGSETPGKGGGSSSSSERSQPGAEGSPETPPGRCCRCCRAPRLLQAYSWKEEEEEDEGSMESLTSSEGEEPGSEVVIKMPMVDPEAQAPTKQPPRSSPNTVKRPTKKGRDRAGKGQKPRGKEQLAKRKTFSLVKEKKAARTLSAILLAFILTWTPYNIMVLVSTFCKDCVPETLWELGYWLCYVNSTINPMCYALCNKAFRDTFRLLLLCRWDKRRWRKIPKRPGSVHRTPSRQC

What follows are compounds tested against Muscarinic acetylcholine receptor M1 (Homo sapiens) (UniProt P11229) (assay: human M1 muscarinic receptor agonists, primary screen, Fluo-8 calcium fluorescence, CHO-K1 cells, HTS (AID 588814;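 also: peak over basal fluorescence ratio within a 140 s kinetic read after compound addition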)). Settings: CHO-K1 hM1, Fluo-8 calcium fluorescence, agonist mode; at 3 µM; active compounds read high; 0% DMSO, 100% acetylcholine EC100.

SMILES | activation
CN(C(=O)Cc1ccc(Cl)c(Cl)c1)[C@H]1CC[C@@]2(CCCO2)C[C@@H]1N1CCCC1 | inactive: -3.46%
O=[N+]([O-])c1ccc2c(c1)nnn2O | inactive: -1.05%
CN(C)C(=O)c1cc([N+](=O)[O-])cc2c1-c1c(cc([N+](=O)[O-])cc1[N+](=O)[O-])C2=O | inactive: 4.85%
CCOP1(=S)c2c(C)nn(CCC#N)c2N=C(c2ccc(F)cc2)N1C (stereo unspecified) | inactive: 2.16%
CN(C(=O)Cc1ccccc1)[C@@H]1CC[C@]2(CCCO2)C[C@H]1N1CCCC1 | inactive: -4.02%
N#CCCN(C(=O)COC(=O)C(O)(c1ccccc1)c1ccccc1)c1ccc(F)cc1 | inactive: -1.86%
COc1ccc(CC(C)NCC(O)c2ccc(O)c(NC=O)c2)cc1 (stereo unspecified) | inactive: -6.9% and inactive: -7.18%
NC(=O)Nc1ccc([As](=O)(O)O)cc1 | inactive: -3.63%
O=C(O)COc1ccc([As](=O)(O)O)cc1[N+](=O)[O-] | inactive: 0.1%
Nc1ccccc1[As](=O)(O)c1ccccc1 | inactive: -1.65%
CS(=O)(=O)c1cc([N+](=O)[O-])c2no[n+]([O-])c2c1 | inactive: -2.04%
O=P(Nc1nccs1)(Oc1ccccc1)Oc1ccccc1 | inactive: -2.52%
O=P(Nc1nccs1)(c1ccccc1)c1nc2ccccc2s1 (stereo unspecified) | inactive: -3.41%
CCOP1(=S)c2c(C)nn(CCC#N)c2N=C(c2ccccc2F)N1C (stereo unspecified) | inactive: -6.39%
CCOP(=O)(Nc1cccc2ccccc12)OCC | inactive: -5.81%
COc1cc(C2NCCC3(OCCO3)C2(C)C)cc(OC)c1OC (stereo unspecified) | inactive: -6.01%
CCCOP(=S)(Nc1nc(N)cc(=O)[nH]1)OCCC | inactive: -5.94%
Nc1cccc2c([As](=O)(O)O)cccc12 | inactive: 8.19%
Cc1ccc(NCCc2c([N+](=O)[O-])cc([N+](=O)[O-])cc2[N+](=O)[O-])cc1 | inactive: -3.41%
COc1ccc(C[C@H]2NC[C@H](O)[C@H]2OC(C)=O)cc1 | inactive: -3.53%
Cc1cccc(OCC(=O)OC2CN3CCC2CC3)c1 (stereo unspecified) | inactive: -4.98%
O=[As](O)(c1cccc(O)c1)c1cccc(O)c1 | inactive: -1.07%
CS(=O)(=O)c1ccc(Cl)c(NC(=O)COC(=O)C(O)(c2ccccc2)c2ccccc2)c1 | inactive: 1.59%
O=[As](O)(O)c1cccnc1 | inactive: -0.98%
O=C(OC1CN2CCC1CC2)c1ccc(Cl)cc1 (stereo unspecified) | inactive: -9.31%
CC1(CBr)Cn2c(nc3ccccc3c2=O)S1 (stereo unspecified) | inactive: -3.29%
